The chains behind the UniProt entries cited, without tags or fusion partners.
UniProt O14842, whole entry: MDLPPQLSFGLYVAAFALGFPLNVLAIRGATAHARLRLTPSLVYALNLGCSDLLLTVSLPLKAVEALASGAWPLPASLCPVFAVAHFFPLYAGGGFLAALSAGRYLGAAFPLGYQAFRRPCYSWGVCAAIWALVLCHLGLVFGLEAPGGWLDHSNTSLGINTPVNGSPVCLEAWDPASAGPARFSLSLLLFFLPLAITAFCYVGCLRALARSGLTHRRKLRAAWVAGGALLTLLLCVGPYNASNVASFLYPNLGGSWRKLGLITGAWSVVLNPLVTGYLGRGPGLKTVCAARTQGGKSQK

In ChEMBL document CHEMBL2384913 (ACS Med Chem Lett, 2013):

Target: Free fatty acid receptor 1 (Homo sapiens, UniProt O14842)
Assay: Agonist activity at human FFA1 receptor transfected in human 1321N1 cells by calcium mobilization assay relative to TUG-20
Format: functional, cell-based

N#CCc1ccccc1C#Cc1ccc(CCC(=O)O)cc1
Efficacy: 103%
